High-throughput results from PubChem.
An excerpt weighted towards active compounds, which were near 13% of everything screened.
ALDH1A1 block – ALDH1A1 (human) enzyme inhibition. Purified ALDH1A1, NADH fluorescence, propionaldehyde substrate. Potency, µM (doses to about 75.3 µM), without a hit: at the top dose activity, negative = inhibition, usual class: inhibitors. actives 7.3% (n = 220,000); active means well fitted inhibition curve with a large enough effect, not every such curve was filed as active; inconclusive means small, poorly fitted or top-dose-only effect, or another doubt; inactive means no such curve, though single readings can be large or run the other way;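 further: potency means the concentration at half of the fitted maximal effect; plate controls were no enzyme wells and a reference inhibitor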
G9a inh – G9a (human) methyltransferase inhibition; G9a H3K9 monomethylation, AlphaScreen, 2 h; Potency, µM (top dose mostly 102 µM), inactives show at the top dose activity, negative = inhibition, most hits filed as inhibitors; actives 8.8% (n = 350,000); AID 504332; further: potency means the concentration at half of the fitted maximal effect; on the % scale 0 is the no-effect control and ±100 the full control effect; nearly all actives have a fitted effect of over 75% in size
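Step 1: enzyme (final 20 nM) with compound, 15 min RT. Step 2: substrate peptide 500 nM and SAM 20 uM, 2 h RT. Step 3: anti-H3K9me1 antibody and AlphaScreen beads, 10 min, then plate read.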
Lamin A splicing – modulators of lamin A splicing. HeLa LMNA splicing GFP/RFP minigene ratio, 48 h. Potency, µM (doses to about 46.1 µM), without a hit: at the highest dose ratio change, negative = inhibition, most hits filed as inhibitors. actives 0.01% (n = 200,000); active means well fitted inhibition curve with a large enough effect in the signal ratio, with a control signal flat, not every such curve was filed as active; inconclusive means small, poorly fitted or top-dose-only effect, or effect the other way, or a change in a side signal; the % refers to the signal ratio; further: potency means the concentration at half of the fitted maximal effect; on the % scale 0 is the no-effect control and ±100 the full control effect
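Read-out is the ratio of GFP to DsRed2 object intensity, acquired by 488 nm laser-scanning cytometry on HeLa lamin A-EGFP minigene reporter cells. Compound incubation 48 hrs at 37 °C in Opti-MEM with 2% FBS; DMSO 0.5% final.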
Sfp inh – blocks B. subtilis Sfp PPTase activity | Q9F4F7 | hit rate 3.5% among 310,000 | Potency, µM, without a hit: max response, negative = inhibition, most hits filed as inhibitors | AID 1490 | Biochemical Sfp PPTase activity, qHTS; active means well fitted inhibition curve with a large enough effect; inconclusive means small, poorly fitted or top-dose-only effect, or another doubt; inactive means no such curve, though single readings can be large or run the other way;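 further: the enzyme is Sfp with the accession as filed and its product quenches rhodamine fluorescence; potency means the concentration at half of the fitted maximal effect; 0% = enzyme reaction without inhibitor and -100% = no enzyme wells; top concentration of the series not given in the record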
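Fluorescence-quenching assay: 15 nM Sfp-PPTase preincubated 15 min at room temperature with compound, then 5 uM rhodamine-CoA and 12.5 uM BHQ-2-labelled YbbR peptide added. Fluorescence (ex 525/em 598 nm) read at start and after 30 min; difference gives rate.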
miR-21 reporter – raises the signal of a miR-21 reporter; HeLa miR-21 FLuc reporter, luciferase, 48 h; Potency, µM (series often up to 38.3 µM), inactives show top-dose reporter change, positive = more light; 340,000 tested, under 10 active; active = well fitted rising curve with a large enough effect; inconclusive = small, poorly fitted or top-dose-only effect; inactive = no such curve, though single readings can be large or run the other way;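 also: % of control where 0% means no effect; miR-21 action dims this reporter so a rising signal means less miR-21 action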
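HeLa cells stably expressing CMV-driven firefly luciferase with a downstream miR-21 binding sequence, endogenously expressing miR-21, were treated with titrations (up to about 40uM final) for 48 hours at 37 degree Celsius. Luciferase luminescence was read after lysis.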
JMJD2E inh – inhibitors of human JMJD2E histone demethylase; B2RXH2; JMJD2E catalytic domain, FDH-coupled NADH fluorescence (FDH is formaldehyde dehydrogenase); Potency, µM (series often up to 57.1 µM), for inactives: at the top dose activity change, negative = inhibition, actives largely listed as inhibitors; actives 1.6% (n = 230,000); active means well fitted inhibition curve with a large enough effect, not every such curve was filed as active; inconclusive means small, poorly fitted or top-dose-only effect, or another doubt; inactive means no such curve, though single readings can be large or run the other way;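 further: potency means the concentration at half of the fitted maximal effect; 0% = wells with enzyme and -100% = buffer wells without enzyme; nearly all actives have a fitted effect of over 50% in size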
Starred values were filed as active, the others as inactive; ! = repeats disagree; [ ] = another dose, or the depositor's remark. Unless noted, the call rests on the fitted dose curve; in most records, active means well fitted curve in the direction sought with a large enough effect; inconclusive means small, poorly fitted or top-dose-only effect, or another doubt; inactive means no such curve, though single readings can be large; an effect the other way counts as inactive or inconclusive.

`O=C(NC(Cc1ccccc1)C(=O)N1CCCCC1)c1ccccc1` (stereo not drawn) gave G9a inh 23%[2.33 µM].
For Cc1cccc(C)c1NC(=O)c1oc2c(c1C)-c1nn(Cc3ccccc3)cc1CC2 the results were G9a inh -7%[59 µM], Lamin A splicing 2%[46 µM] and miR-21 reporter -2%.
Cc1ccccc1CNC(=O)C(=O)NCC(c1cccs1)S(=O)(=O)c1ccc(Cl)cc1 (stereo not drawn) was read as G9a inh 4%[59 µM], Lamin A splicing 4%[46 µM] and miR-21 reporter 21%.
CCOc1cc(/C=N/Nc2cccc(C(=O)O)c2)ccc1OC(=O)c1ccccc1 was read as ALDH1A1 block 40µM*, G9a inh 10µM*, Lamin A splicing -6%[1.84 µM], Sfp inh 1%, miR-21 reporter -50% and JMJD2E inh -27%.
Screening CCOc1cc(/C=N/NC(=O)CNc2cccc(C)c2)ccc1OC(=O)c1ccccc1 returned ALDH1A1 block 3%, G9a inh 6%[12.7 µM], Lamin A splicing -4%, Sfp inh 4%, miR-21 reporter 0% and JMJD2E inh 0%.
N[C@H](CCC(=O)N[C@H](CSN=O)C(=O)NCC(=O)O)C(=O)O was read as ALDH1A1 block -12%, Sfp inh 32µM* and JMJD2E inh inconclusive.
[N-]=[N+]=Nc1ccc(C(=O)CSC[C@H](NC(=O)CC[C@H](N)C(=O)O)C(=O)NCC(=O)O)cc1 was read as ALDH1A1 block 7%, G9a inh 32µM*!, Lamin A splicing inconclusive and JMJD2E inh -1%.
`NC(CCC(=O)NC(CCSC(CC(=O)O)C(=O)O)C(=O)NCC(=O)O)C(=O)O` (stereo not drawn) gave ALDH1A1 block 5%, Lamin A splicing -9%, Sfp inh -24% and JMJD2E inh 1%.
`N[C@@H](CCC(=O)N[C@H](CSN=O)C(=O)NCC(=O)O)C(=O)O` gave ALDH1A1 block -7%, G9a inh 8.9µM*, Lamin A splicing inconclusive and JMJD2E inh inconclusive.
`N[C@@H](CCC(=O)N[C@@H](CSN=O)C(=O)NCC(=O)O)C(=O)O` gave G9a inh 1.1µM*.
Cc1ccc(N2C(=O)CCC(C(=O)O)C2c2cccs2)cc1 (stereo not drawn) was read as G9a inh -26%, Sfp inh 14% and miR-21 reporter 10%.
For NC1=NC(=O)CC(C(=O)NCc2ccccc2)S1 (stereo not drawn) the results were ALDH1A1 block 18µM*, G9a inh 1%[12.7 µM], Lamin A splicing 0%, Sfp inh 14%, miR-21 reporter -1% and JMJD2E inh -2%.
`COc1ccc2c(c1)c1ccc3c(c1n2C)C(=O)C=CC3=O` gave ALDH1A1 block 0.28µM*, G9a inh 1.8µM*, Sfp inh 2.2µM*, miR-21 reporter 7% and JMJD2E inh -13%.
Screening Cc1ccc2c(c1)c1ccc3c(c1n2C)C(=O)C=CC3=O returned G9a inh 1.6µM*, Sfp inh 2.5µM*, miR-21 reporter 5% and JMJD2E inh inconclusive.
Screening COc1ccc2c(c1)c1ncn(CCN3CCCC3)c(=O)c1n2C returned ALDH1A1 block inconclusive, G9a inh 14%, Lamin A splicing 1%, Sfp inh 4%, miR-21 reporter -9% and JMJD2E inh inconclusive.
CCOC(=O)c1c(S(=O)(=O)N2CCCC(C(=O)Nc3cccc(Cl)c3)C2)c(C)n(C)c1C (stereo not drawn) was read as G9a inh -19%[59 µM], Lamin A splicing inconclusive and miR-21 reporter 23%.
For COc1ccc2cc1Oc1cc3c(cc1OC)CC[N+](C)(C)C3Cc1ccc(cc1)Oc1c(OC)c(OC)cc3c1C(C2)[N+](C)(C)CC3 (stereo not drawn) the results were G9a inh inconclusive and Sfp inh -5%.
Cc1c(N=Cc2ccc(O)c(Br)c2)cccc1[N+](=O)[O-] was read as ALDH1A1 block 22µM*, G9a inh inconclusive, Lamin A splicing 4%, Sfp inh -10%, miR-21 reporter -14% and JMJD2E inh 4%.
Screening O=C(N/N=C/c1ccc(O)c([N+](=O)[O-])c1)C(O)(c1ccccc1)c1ccccc1 returned Sfp inh 3% and miR-21 reporter 0%.
Screening COc1ccc(NC(=O)CSc2oc(-c3ccc(F)cc3)nc2S(=O)(=O)c2ccc(C)cc2)c(OC)c1 returned G9a inh inconclusive and miR-21 reporter -2%.
`COC(=O)NC(c1cccc(F)c1)[C@]1(C(C)=O)CCCC1=O` (stereo partly drawn) gave ALDH1A1 block 0%[13.5 µM] and Sfp inh 8%.
For COc1ccc(C(=O)CSc2nn3c(=O)c(C(C)(C)C)nnc3s2)cc1 the results were ALDH1A1 block 0.4µM*, G9a inh -5%[2.33 µM], Lamin A splicing inconclusive, Sfp inh -17%, miR-21 reporter -1% and JMJD2E inh -7%.
Screening COc1ccc(Cc2nc3ccc(C(=O)NCc4cc(Br)ccc4OC)cc3o2)cc1 returned G9a inh 3%[59 µM], Lamin A splicing 4%[46 µM] and miR-21 reporter -5%.
`CCOCCn1c(N2CCCC2)nc2c1c(=O)n(C)c(=O)n2C` gave G9a inh 71µM*, Sfp inh 37% and miR-21 reporter 0%.
For CC1CCN(c2nc3c(c(=O)n(C)c(=O)n3C)n2CCSc2nc3ccccc3o2)CC1 the results were ALDH1A1 block 20%, G9a inh 27%[12.7 µM], Lamin A splicing -8%, Sfp inh 9%, miR-21 reporter -3% and JMJD2E inh -2%.
`Cn1c(=O)c2c(nc(N3CCCCCC3)n2CCSc2nc3ccccc3o2)n(C)c1=O` gave ALDH1A1 block 4.5µM*, G9a inh inconclusive, Lamin A splicing 2%, Sfp inh 6%, miR-21 reporter -5% and JMJD2E inh 4%.
Screening CCOCCn1c(N2CCCC2)nc2c1c(=O)[nH]c(=O)n2C returned G9a inh inconclusive, Sfp inh 40µM* and miR-21 reporter -6%.
For CCOCCn1c(SC)nc2c1c(=O)[nH]c(=O)n2C the results were ALDH1A1 block 14µM*, G9a inh inconclusive, Lamin A splicing -7%, Sfp inh 18µM*, miR-21 reporter -3% and JMJD2E inh 1%.
Screening COc1cc(CN(C(=O)c2ccco2)C2CCS(=O)(=O)C2)cc(OC)c1OC (stereo not drawn) returned G9a inh -8%, Sfp inh 5% and miR-21 reporter 0%.

Grouped by structure: the entries above with a thiophene ring, fused or not.
Cc1ccccc1CNC(=O)C(=O)NCC(c1cccs1)S(=O)(=O)c1ccc(Cl)cc1 (stereo not drawn) was read as G9a inh 4%[59 µM], Lamin A splicing 4%[46 µM] and miR-21 reporter 21%.
Cc1ccc(N2C(=O)CCC(C(=O)O)C2c2cccs2)cc1 (stereo not drawn) was read as G9a inh -26%, Sfp inh 14% and miR-21 reporter 10%.

Among those listed so far, two have an NH in an aromatic ring.
Screening CCOCCn1c(N2CCCC2)nc2c1c(=O)[nH]c(=O)n2C returned G9a inh inconclusive, Sfp inh 40µM* and miR-21 reporter -6%.
For CCOCCn1c(SC)nc2c1c(=O)[nH]c(=O)n2C the results were ALDH1A1 block 14µM*, G9a inh inconclusive, Lamin A splicing -7%, Sfp inh 18µM*, miR-21 reporter -3% and JMJD2E inh 1%.
